The values that follow are results of earlier work, collected in paper PMC6848745 (Psychopharmacology, 2018).

For this series the following is noted: humans, after a 200 μg p.o. dose; ref Dolder et al. 2015; cited from earlier work.

The structures appear in SMILES notation.

For `CCN(CC)C(=O)[C@@H]1C=C2c3cccc4[nH]cc(c34)C[C@H]2N(C)C1` [LSD, (+)-Lysergic acid diethylamide], the “concentration in cerebrospinal fluid (CSF)” value was 0.6 to 0.8 nM.
